Results published in paper PMC8347176, “Novel High Affinity Sigma-1 Receptor Ligands from Minimal Ensemble Docking-Based Virtual Screening” (International Journal of Molecular Sciences, 2021).

Amino acid sequences for entries named in this document (tags omitted). A change or cut given only in a name is not applied to a line headed by its entry.
UniProt Q60492, whole entry: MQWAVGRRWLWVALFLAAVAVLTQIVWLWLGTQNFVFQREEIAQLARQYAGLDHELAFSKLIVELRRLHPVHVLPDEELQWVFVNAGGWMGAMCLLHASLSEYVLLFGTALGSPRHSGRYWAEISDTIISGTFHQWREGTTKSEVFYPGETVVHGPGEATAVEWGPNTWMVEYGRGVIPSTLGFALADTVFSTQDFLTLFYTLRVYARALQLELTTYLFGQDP

Target: T1, sigma-1 receptor (S1R) (Cavia porcellus, UniProt Q60492)
T1 construct: Guinea pig liver tissue preparation abundantly contains sigma-1 receptor as compared to other tissues; from tissue; host or cells: guinea pig liver membrane homogenate
Assay: Saturation binding of [3H]-(+)-pentazocine in guinea pig liver membrane preparations
Details: guinea pig liver membranes, 37 °C
Procedure: Male Wistar-Harlan rats (n = 10, 225–250 g) and guinea pigs (n = 10, 350–400 g) were handled according to the European Communities Council Directive (2010/63/EU) and to the Regulations on Animal Protection (40/2013. (II. 14.) Korm. r.) of Hungary. The researchers did the best effort to minimize the number of animals and their suffering. Preparation of guinea pig and rat liver homogenates was performed according to a previous method with a slight modification. Euthanized male guinea pig and rats were killed by decapitation, and their livers were removed rapidly. […] The protein content of the samples was measured by the Bradford method and samples were diluted in assay buffer to obtain the appropriate amount for the assay.
The incubation was terminated by diluting the samples with an ice-cold wash buffer (50 mM of Tris–HCl, pH 8.0), followed by repeated washing and rapid filtration through Whatman GF/B glass fiber filters (Whatman Ltd., Maidstone, UK) presoaked with 0.1% polyethyleneimine. […] Filters were air-dried and immersed into Ultima Gold MV scintillation cocktail, and then radioactivity was measured with a TRI-CARB 2100TR liquid scintillation analyzer (Packard, Perkin Elmer, Waltham, MA, USA).

Compound: CC(C)=CCN1CC[C@]2(C)c3cc(O)ccc3C[C@H]1[C@H]2C [[^3H]-(+)-pentazocine]
- maximal density of binding sites (Bmax): 1072 fmol/mg protein
- maximal density of binding sites (Bmax) (listed as [3H]-(+)-pentazocine): 1072 ± 20 fmol/mg protein
